## Measured affinities in a library of Ab-95 light chain variants

Data: MIT Lincoln Laboratory AlphaSeq set, Engelhart et al. 2022, doi:10.1038/s41597-022-01779-4, as distributed in FLAb.

Antigen: PDVDLGDISGINAS, a 14-residue peptide of the SARS-CoV-2 spike HR2 region.

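The starting antibody came from a phage panning campaign against this peptide. The library (AAYL52) carries one to three amino acid substitutions per variant, with no insertions or deletions. Affinity was read by AlphaSeq, a pooled yeast mating assay with surface-displayed partners. Mating (16 h, 30 °C) was followed by selection of diploids and sequencing of their barcodes. The ratio of observed to expected reads was calibrated, replicate by replicate, on BCL2-family standards whose Kd was known from biolayer interferometry. Mating was done three times.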

Parent scFv Ab-95: VH joined to VL by the linker GGGGSGGGGSGGGGS. Changes lie in the light chain CDRs alone.
VH: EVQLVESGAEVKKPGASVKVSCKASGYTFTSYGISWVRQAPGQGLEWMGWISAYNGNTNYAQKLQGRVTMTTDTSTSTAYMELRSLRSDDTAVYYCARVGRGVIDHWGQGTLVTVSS
VL: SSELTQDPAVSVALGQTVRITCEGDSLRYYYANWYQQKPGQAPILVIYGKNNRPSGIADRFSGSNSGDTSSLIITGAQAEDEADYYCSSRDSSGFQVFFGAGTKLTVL

Substitutions are numbered in sequence along the VL above, starting at 1 (not Kabat).
Values are log10 of the apparent Kd in nM; lower means stronger binding.
The mean shown is taken over the replicates in which the pair was detected.
A pair that was not seen in that replicate is written "nd"; this usually means weak binding, but a binder can also be missed.

changes | log10 Kd, replicates | mean log10 Kd (nM) | empty controls
G24I/N51T/V97I | nd nd nd | nd | 0/9
G24S/Y29S/S88T | 2.83 nd 2.95 | 2.89 | 0/9
L27R/N33V/F98T | 5.05 nd 4.19 | 4.62 | 3/9 (3.74)
D25E/V97N/F98P | 3.82 2.98 2.69 | 3.16 | 5/9 (3.75)
R28H/N52S/F95G | 2.53 2.98 2.54 | 2.68 | 5/9 (3.54)
Y31I/K50Q/V97N | 2.87 3.58 2.94 | 3.13 | 1/9 (2.97)
D25Q/G49R/S89K | nd nd nd | nd | 2/9 (3.68)
D25K/N51T/R90F | nd nd nd | nd | 1/9 (3.63)
N51K/R53M/P54T | 4.14 nd nd | 4.14 | 3/9 (3.40)
N33R/S88N | 4.09 nd 3.28 | 3.69 | 1/9 (3.34)
Y31V/S55P/S88D | 4.04 5.84 nd | 4.94 | 5/9 (4.85)
N33V/F95G/V97A | nd nd 2.88 | 2.88 | 1/9 (2.77)
L27T/G49Y/S93F | nd nd nd | nd | 2/9 (3.25)
G49R/S55F/F95T | nd nd nd | nd | 3/9 (4.03)
Y30F/A32K/S89D | 6.00 3.96 4.01 | 4.66 | 5/9 (4.34)
E23V/S93E/G94P | 2.33 1.97 2.66 | 2.32 | 3/9 (4.49)
S26K/Y30S/N33K | 5.41 4.59 3.69 | 4.56 | 3/9 (4.72)
G24V/R53S/S93P | 4.87 nd nd | 4.87 | 2/9 (4.46)
Y29L/G49H/N52C | 3.60 5.39 4.19 | 4.40 | 3/9 (3.94)
E23I/S92M/F98V | 2.76 nd 3.00 | 2.88 | 1/9 (3.86)
L27T/G94E/Q96V | nd nd nd | nd | 1/9 (3.01)
A32T/K50T | 3.45 3.31 3.17 | 3.31 | 3/9 (3.34)
G24V/N51A/F98M | 3.95 nd 4.30 | 4.13 | 2/9 (3.54)
S88E/F98H | 3.11 2.93 2.93 | 2.99 | 2/9 (3.69)
Y30N/N52C/R90D | 1.48 1.29 1.07 | 1.28 | 2/9 (3.71)
L27W/S88H/G94K | 4.03 3.00 2.92 | 3.32 | 1/9 (5.19)
Y30R/K50F/S93K | 2.15 1.68 1.48 | 1.77 | 0/9
D25P/Y29W/Y31H | 2.10 1.73 1.47 | 1.77 | 2/9 (3.51)
E23R/S26L/D91T | nd nd nd | nd | 3/9 (3.55)
D25Y/R90Q/S92K | nd nd nd | nd | 3/9 (4.40)
E23W/S26I/V97W | 3.34 3.89 nd | 3.61 | 1/9 (2.49)
D25E/R90I | 2.37 3.72 3.10 | 3.06 | 6/9 (3.95)
Y29L/Y30E | 2.13 1.99 1.52 | 1.88 | 3/9 (3.79)
L27F/K50A/S55C | 3.03 4.29 nd | 3.66 | 2/9 (4.50)
E23P/N52S/S89M | 3.71 4.50 4.16 | 4.12 | 3/9 (3.92)
S26A/N52V/S89P | nd nd nd | nd | 0/9
G24R/P54V/R90M | nd nd nd | nd | 3/9 (3.40)
G49Q/P54G/G94K | nd nd 4.13 | 4.13 | 3/9 (2.93)
Y30A/K50L/G94Q | 1.30 1.15 0.63 | 1.03 | 1/9 (3.57)
G24R/K50E/S55D | 2.38 2.34 2.06 | 2.26 | 2/9 (3.72)
D25N/N33W | 4.46 4.86 nd | 4.66 | 0/9
G49M/N51L | nd nd nd | nd | 0/9

For reference, 4 entries of the list once more:

changes,"log10 Kd, replicates",mean log10 Kd (nM),empty controls
L27T/G49Y/S93F,nd nd nd,nd,2/9 (3.25)
A32T/K50T,3.45 3.31 3.17,3.31,3/9 (3.34)
Y31I/K50Q/V97N,2.87 3.58 2.94,3.13,1/9 (2.97)
G49R/S55F/F95T,nd nd nd,nd,3/9 (4.03)

For reference, the parent read 2.31 as the reference entry and 2.25 as a member of this library.
Nonspecific signal, from three strains lacking the peptide, appeared in 28% of pairings of library AAYL52, centred on 3.91 (5% of these signals below 2.90); values are not corrected for it. Also given: how often the same scFv was detected with the empty control strains, with their mean in brackets.